Experimental data from US7119075B2, “Use of herbal agents for potentiation of bioefficacy of anti infectives” (priority 2003, dated 2006).
≈ marks a conversion by molar mass, not a printed value.

What was measured:
Assay in all cases: microbe, parasite or virus in culture
S aureus ATCC 29313 = settings: Staphylococcus aureus, ATCC29313
M avium ATCC 49601 = settings: Mycobacterium avium, ATCC49601
[1] = test system: M intracellure ATCC 13950; settings: Mycobacterium, ATCC13950

Row | SMILES | MIC (S aureus ATCC 29313) | MIC (M avium ATCC 49601) | MIC [1]
1 | O=C(O)c1cn(C2CC2)c2cc(N3CCNCC3)c(F)cc2c1=O [Ciprofloxacin] | 0.5 µg/mL (≈ 1.51 µM) | – | –
2 | CO[C@H]1/C=C/O[C@@]2(C)Oc3c(C)c(O)c4c(O)c(c(/C=N/N5CCN(C)CC5)c(O)c4c3C2=O)NC(=O)/C(C)=C\C=C\[C@H](C)[C@H](O)[C@@H](C)[C@@H](O)[C@@H](C)[C@H](OC(C)=O)[C@@H]1C [Rifampicin] | – | 2 µg/mL (≈ 2.43 µM) | 2 µg/mL (≈ 2.43 µM)
